This is a sample that favours compounds with a hit; in the whole collection about 1.8% have one here.
Cneo AK release: Cryptococcus neoformans cell lysis inducers, primary screen, AK release luminescence, single concentration | 0.2% of 360,000 active | lysis activity, % at 15 µM | AID 651654, 2012 | C. neoformans lysis, adenylate kinase release luminescence, 4 h; normalised: neutral wells 0, clomiphene wells 100;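 active = mean lysis activity across replicates of at least 80%, whatever share of replicates individually reach that level; inactive = mean lysis activity below 80%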
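Schedule: static 4 h at 37 °C with compound, 1 h detection; system: C. neoformans cells; benchmarks: Clomiphene as positive control; buffer or medium: fresh YPD medium; measure: luminescence rise reflecting yeast cell lysis; measured by: luminescent adenylate kinase detection reagent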
E-selectin induc: E-selectin induction in HUVECs, primary screen, imaging, HUVEC, immunofluorescence imaging, single point; P16581; normalized: neutral wells 0, TNF-alpha wells 100; activation, % at 7.58 µM; 0.37% of 260,000 active; AID 686992, 2013;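 active = mean E-selectin-positive cell signal at least 10% of the positive control, reached in at least 60% of replicates, without over 20% cell loss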
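System: HUVEC, human umbilical vein endothelial cells; quantity: 3,000 cells/well; buffer or medium: EGM-2 medium, gelatin-coated wells; dosing: single-point compound dose; detection: immunofluorescence imaging; evaluation: % PE-positive cells; benchmarks: TNF-alpha, DMSO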
Yeast UUG start: alters start codon recognition fidelity in yeast | S. cerevisiae UUG-firefly luciferase reporter, luminescence/redox ratio | activity score, % at 18.7 µM | 350,000 compounds, 0.13% hits | AID 602363;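 active = replicate mean at a twofold rise or more, about +100% in these data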;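 note: firefly luciferase made from a UUG start codon reports start codon fidelity; reporter light over untreated wells divided by growth signal over untreated wells; some hits fall short of that in this replicate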
DENV2 CPE: inhibitors of DENV2 cytopathic effect, primary screen, cell-based, plate reader, single concentration. DENV2-infected cells, cytopathic effect rescue. CPE inhibition, % at 9.99 µM. 1.7% of 350,000 active; in the data active = CPE inhibition above about 20%, passing the limit was not always enough; tested in BHK-21 cells;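 also: 0% = median of neutral control wells and 100% = median of positive control wells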
* = called active by the depositor; x = not tested or not shown; ! = a repeat was not active.

SMILES	Cneo AK release	E-selectin induc	Yeast UUG start	DENV2 CPE
CN(C)C(=O)c1cccc(-c2ccc([C@H]3[C@@H](C#N)N(C(=O)C4CC4)[C@@H]3CO)cc2)c1	52	0	x	-1
CC=Cc1ccc2n(c1=O)C[C@@H]1[C@@H](CO)[C@H](C(=O)NCc3ccccc3)N(CC)[C@H]21 (mixture of isomers)	x	0	x	38*
CC=Cc1ccc2n(c1=O)C[C@@H]1[C@@H](CO)[C@H](C(=O)NC3Cc4ccccc4C3)N(CC3CC3)[C@H]21 (mixture of isomers)	41	0	9	75*
CC=Cc1ccc2n(c1=O)C[C@@H]1[C@@H](CO)[C@H](C(=O)N3CCCCC3)N(Cc3ccccc3)[C@H]21 (mixture of isomers)	106*	0	x	4
CC=Cc1ccc2n(c1=O)C[C@H]1[C@H](CO)[C@@H](C(=O)N3CCOCC3)N(Cc3ccccc3)[C@@H]21 (mixture of isomers)	-3	0	12	6
CC=Cc1ccc2n(c1=O)C[C@H]1[C@H](CO)[C@@H](C(=O)N3CCOCC3)N(CC3CC3)[C@@H]21 (mixture of isomers)	84*	0	x	-9
C[C@H](CO)N1C[C@H](C)[C@@H](CN(C)C(=O)c2cnccn2)Oc2cc(C#CC3CC3)ccc2S1(=O)=O	-10	0	8	-11
COc1ccc(S(=O)(=O)Nc2ccc3c(c2)C(=O)N([C@H](C)CO)C[C@@H](C)[C@@H](CN(C)C(=O)CCC(F)(F)F)OCCCC[C@@H](C)O3)cc1	0	0	21	1
CC(C)NC(=O)Nc1ccc2c(c1)C(=O)N([C@@H](C)CO)C[C@H](C)[C@@H](CN(C)Cc1ccc(Oc3ccccc3)cc1)O2	-3	0	-3	-1
CCNC(=O)[C@@H]1[C@@H](CO)[C@@H]2Cn3c(ccc(/C=C/c4ccccc4)c3=O)[C@@H]2N1C(C)=O	1	-2	x	62*
CC=Cc1ccc2n(c1=O)C[C@H]1[C@H](CO)[C@@H](C(=O)N3CCc4ccccc4C3)N(C(=O)C3CC3)[C@@H]21 (mixture of isomers)	90*	0	x	-3
CCCN1[C@H](C(=O)NCC)[C@@H](CO)[C@@H]2Cn3c(ccc(/C=C/c4ccccc4)c3=O)[C@@H]21	-2	0	x	-9
CC=Cc1ccc2n(c1=O)C[C@H]1[C@H](CO)[C@@H](C(=O)N3CCc4ccccc4C3)N(C(=O)CC)[C@@H]21 (mixture of isomers)	3	0	x	8
O=C(N[C@H]1CC[C@H](CCNC(=O)C2CCCCC2)O[C@H]1CO)c1ccccn1	44	0	16	-12
O=C(C[C@H]1C[C@H]2c3cc(NC(=O)C4CCC4)ccc3O[C@H]2[C@@H](CO)O1)NCc1cccc(F)c1	94*	-1	x	12

Rewritten as labelled records: part of the list above.
CC=Cc1ccc2n(c1=O)C[C@H]1[C@H](CO)[C@@H](C(=O)N3CCc4ccccc4C3)N(C(=O)C3CC3)[C@@H]21 (mixture of isomers)
- Cneo AK release = 90*
- E-selectin induc = 0
- Yeast UUG start = x
- DENV2 CPE = -3

CCCN1[C@H](C(=O)NCC)[C@@H](CO)[C@@H]2Cn3c(ccc(/C=C/c4ccccc4)c3=O)[C@@H]21
- Cneo AK release = -2
- E-selectin induc = 0
- Yeast UUG start = x
- DENV2 CPE = -9

The list continues.
SMILES	Cneo AK release	E-selectin induc	Yeast UUG start	DENV2 CPE
O=C(C[C@H]1C[C@H]2c3cc(NC(=O)CC4CC4)ccc3O[C@H]2[C@@H](CO)O1)NCc1cccc(F)c1	1	0	-6	-2
O=C(C[C@@H]1C[C@@H]2c3cc(NC(=O)C4CCC4)ccc3O[C@@H]2[C@H](CO)O1)NCc1cccc(F)c1	86*	0	x	1
O=C(C[C@H]1C[C@@H]2c3cc(NC(=O)CC4CC4)ccc3O[C@@H]2[C@@H](CO)O1)NCc1cccc(F)c1	91*	0	16	-8
C[C@@H]1CN([C@@H](C)CO)C(=O)c2cc(NC(=O)c3ccncc3)ccc2O[C@@H](C)CCCCO[C@H]1CN(C)S(=O)(=O)c1cn(C)cn1	-1	0	-6	-2
Cc1cccc(C)c1OCC(O)CN1CCN(c2ccccn2)CC1 (centres undefined)	x	4	x	x
OC(COC(c1ccc(Cl)cc1)c1ccc(Cl)cc1)CN1CCN(c2ccccn2)CC1 (centres undefined)	3	x	-12	45*
CN1CCN(CC(O)COC(c2ccccc2)c2ccccc2)CC1 (centres undefined)	x	x	x	-7
OC(COC(c1ccc(F)cc1)c1ccc(F)cc1)CN1CCCC1 (centres undefined)	5	0	-13	41*
C[C@@H]1CN([C@H](C)CO)C(=O)c2cc(NC(=O)Cc3cn(C)c4ccccc34)ccc2O[C@H]1CN(C)C(=O)Nc1ccc(C(F)(F)F)cc1	61	0	-8	-3
COc1cccc(NC(=O)N2[C@@H]3CNC[C@H]2C3c2ccc(-c3ccccc3)cc2)c1 (some centres undefined)	x	1	x	99*!
O=C(Nc1cccc(Cl)c1)N1[C@@H]2CNC[C@H]1C2c1ccc(/C=C/c2ccccc2)cc1 (some centres undefined)	x	0	x	11
COc1cccc(NC(=O)N2[C@@H]3CNC[C@H]2C3c2ccc(/C=C/c3ccccc3)cc2)c1 (some centres undefined)	x	0	x	89*!
COc1ccc(NC(=O)N2[C@@H]3CNC[C@H]2C3c2ccc(-c3cccc(OC)c3)cc2)cc1 (some centres undefined)	x	0	x	-4
COc1cccc(-c2ccc(C3[C@H]4CNC[C@@H]3N4C(=O)Nc3ccc(C(F)(F)F)cc3)cc2)c1 (some centres undefined)	x	0	x	33*!
CC(C)c1cn(CC[C@@H]2CC[C@H](NS(=O)(=O)c3ccc(Cl)cc3)[C@H](CO)O2)nn1	2	0	2	-2
COc1ccc(-c2sc3ccccc3c2/C=C/c2ccc(OC)c(OC)c2)cc1	0	0	-26	3
COc1ccc(-c2sc3ccccc3c2/C=C/c2ccncc2)cc1	-2	0	-19	20*
COc1ccc(CN(C)C[C@H]2Oc3ccc(NC(=O)Nc4ccc(C(F)(F)F)cc4)cc3C(=O)N([C@@H](C)CO)C[C@H]2C)cc1	-1	0	6	4
COc1ccc(CN(C)C[C@@H]2Oc3ccc(NC(=O)Nc4ccc(C(F)(F)F)cc4)cc3C(=O)N([C@@H](C)CO)C[C@H]2C)cc1	41	0	15	44*
COc1ccc(NC(=O)Nc2ccc3c(c2)C(=O)N([C@H](C)CO)C[C@H](C)[C@@H](CN(C)Cc2ccc(C(F)(F)F)cc2)O3)cc1	17	0	18	20*
COc1ccc(Nc2cc(C)c3cc([N+](=O)[O-])ccc3n2)cc1	-11	0	-10	28*
O=C(Nc1ccccc1)C1=C[C@@H](c2ccc(C(F)(F)F)cc2)C[C@@H](OCCCCO)O1	0	0	-7	46*!
O=C(NC1CC1)C1=C[C@@H](C2CCCCC2)C[C@@H](OCCCCO)O1	0	0	-6	39*!
O=C(Nc1ccccc1)C1=C[C@H](C2CC2)C[C@H](OCCCCO)O1	2	0	11	24*!
CCO[C@H]1OC(C(=O)NC2CC2)=C[C@@H](C2CCCCC2)[C@@H]1CCCO	-18	2	17	23*

An excerpt of these results, with values under each structure.
Second line of a record: Cneo AK release, E-selectin induc, Yeast UUG start, DENV2 CPE
COc1ccc(Nc2cc(C)c3cc([N+](=O)[O-])ccc3n2)cc1
  -11, 0, -10, 28*
O=C(Nc1ccccc1)C1=C[C@@H](c2ccc(C(F)(F)F)cc2)C[C@@H](OCCCCO)O1
  0, 0, -7, 46*!
O=C(NC1CC1)C1=C[C@@H](C2CCCCC2)C[C@@H](OCCCCO)O1
  0, 0, -6, 39*!

High-throughput results: PubChem BioAssay, Broad Institute
